SMILES strings stand for the structures.

Amino acid sequences for entries named in this document (tags omitted).
UniProt O35433, whole entry: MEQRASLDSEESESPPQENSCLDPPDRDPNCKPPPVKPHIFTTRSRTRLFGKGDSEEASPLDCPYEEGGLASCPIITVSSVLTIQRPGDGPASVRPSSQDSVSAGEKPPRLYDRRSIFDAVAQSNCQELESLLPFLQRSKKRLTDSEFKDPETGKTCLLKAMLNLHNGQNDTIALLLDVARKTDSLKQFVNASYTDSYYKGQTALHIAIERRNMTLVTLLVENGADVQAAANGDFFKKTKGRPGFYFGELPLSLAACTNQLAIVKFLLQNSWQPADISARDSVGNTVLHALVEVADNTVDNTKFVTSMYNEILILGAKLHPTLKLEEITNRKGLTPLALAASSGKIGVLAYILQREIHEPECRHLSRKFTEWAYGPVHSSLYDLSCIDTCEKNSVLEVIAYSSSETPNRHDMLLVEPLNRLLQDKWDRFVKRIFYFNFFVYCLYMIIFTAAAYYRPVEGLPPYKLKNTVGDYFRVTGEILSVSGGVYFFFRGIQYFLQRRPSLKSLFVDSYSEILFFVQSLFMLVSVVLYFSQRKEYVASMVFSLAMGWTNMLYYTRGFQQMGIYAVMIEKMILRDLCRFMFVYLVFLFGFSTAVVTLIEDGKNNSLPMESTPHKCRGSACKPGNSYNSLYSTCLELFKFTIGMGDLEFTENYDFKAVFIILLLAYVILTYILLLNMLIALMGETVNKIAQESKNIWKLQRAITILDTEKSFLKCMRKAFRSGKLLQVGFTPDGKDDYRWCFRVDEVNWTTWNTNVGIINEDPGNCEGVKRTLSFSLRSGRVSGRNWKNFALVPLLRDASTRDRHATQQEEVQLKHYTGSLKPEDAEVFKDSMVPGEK

The target in this assay is Transient receptor potential cation channel subfamily V member 1 (Rattus norvegicus, UniProt O35433). Put plainly: In vitro binding affinity for rat TRPV1 expressed in CHO cells using [3H]-RTX. The format is cell-based.

What is called Ki is a measure of affinity in units of concentration, obtained from inhibition or displacement. `CC(C)(C)c1ccc(C/N=C(\S)NCc2ccc(NS(C)(=O)=O)cn2)cc1` gave a Ki of 11.9 µM.

These data come from ChEMBL document CHEMBL1142822, “Analysis of structure-activity relationships for the 'A-region' of N-(4-t-butylbenzyl)-N'-[4-(methylsulfonylamino)benzyl]thiourea analogues as TRPV1 antagonists” (Bioorg Med Chem Lett, 2005).
